Bounds are passed on as bounds.

The species named for assay [1] is Homo sapiens. Description: Selectivity ratio of IC50 for recombinant GST-tagged human ERRbeta LBD assessed as inhibition of fluorescein-labeled coactivator peptide recruitment to IC50 for His6-tagged ERRalpha LBD (unknown origin) assessed as inhibition of GST-tagged SRC-2 co-activator peptide recruitment.
Assay [2] is filed under the species Homo sapiens. Briefly: Selectivity ratio of IC50 for ERRgamma (unknown origin) assessed as inhibition of co-activator peptide recruitment to IC50 for His6-tagged ERRalpha LBD (unknown origin) assessed as inhibition of GST-tagged SRC-2 co-activator peptide recruitment.

Consider `CN1CC[C@@H](N2C(=O)S/C(=C\c3ccc4c(cnn4Cc4ccc(Cl)cc4C(F)(F)F)c3)C2=O)[C@H](F)C1`, for which the Ratio IC50 in assay [1] and in assay [2] was above 400 in each case.

For the origin of these results see ChEMBL document CHEMBL4130359, “Indazole-based ligands for estrogen-related receptor α as potential anti-diabetic agents” (Eur J Med Chem, 2017).
